## Apparent affinities of Ab-91 variants for a coronavirus HR2 peptide

Target peptide (SARS-CoV-2 spike, HR2 region): PDVDLGDISGINAS

Parent: Ab-91, a human scFv built as VL, three GGGGS repeats, VH. Only the CDRs of the heavy chain vary.
VL: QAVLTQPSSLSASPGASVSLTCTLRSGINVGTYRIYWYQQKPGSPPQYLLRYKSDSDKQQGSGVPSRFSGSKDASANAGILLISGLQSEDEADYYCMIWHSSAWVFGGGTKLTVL
VH: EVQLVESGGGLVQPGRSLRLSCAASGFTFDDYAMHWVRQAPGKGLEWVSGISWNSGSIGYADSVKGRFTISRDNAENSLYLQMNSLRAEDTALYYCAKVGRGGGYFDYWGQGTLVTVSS

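Phage display of a naive human antibody library on the peptide gave the parent. The library (AAYL51) carries one to three amino acid substitutions per variant, with no insertions or deletions. AlphaSeq pools MATa yeast showing the antibodies with MATalpha yeast showing the peptide. Binding brings cells together so that they mate, and sequencing counts the barcode pairs among the diploids. The ratio of observed to expected reads was calibrated, replicate by replicate, on BCL2-family standards whose Kd was known from biolayer interferometry. There are three technical replicates.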

The parent's heavy chain CDRs are GFTFDDYAMH, GISWNSGSIGYADSVK, VGRGGGYFDY; each variant's own CDRs replace them letter for letter.
This list gathers variants with a substitution at I51 (VH, numbered from residue 1).
Affinities are written as log10 Kd with Kd in nM; a lower number is a better binder.
A mean of the replicates is given; it leaves out those without a signal.
Where no diploid with the target was found in any replicate, the entry reads "nd": below detection, most likely a poor binder, though not proof of it.
Empty control strains, which show no peptide, gave a signal in 21% of pairings with library AAYL51; the median was 4.54 and 95% of these signals were weaker than 3.26. No background was subtracted. The control count says in how many pairings with the empty strains this scFv gave a signal.

For GFTFDDYAMH | GHSWNSGSIGYADSVK | VGRGGGYFDK, the assay gave 5.66 (2 of 3 replicates; controls 3 of 9). With GFTFDDYAMH | GYSWNSGSIGYADSVK | VGRGGGYEDY the result was 5.86 (2 of 3 replicates; controls 1 of 9). With GFTFDDYAMY | WDSWNSGSIGYADSVK | VGRGGGYFDY the result was 3.50 (1 of 3 replicates; controls 1 of 9). For GFTSDDYAMH | GRSWYSGSIGYADSVK | VGRGGGYFDY, the assay gave nd (0 of 3 replicates; controls 1 of 9). For GFTFEDYAMH | GQSWNSGSIGYADSVK | VGRGGGYFDY, the assay gave 4.03 (3 of 3 replicates; controls 3 of 9).

With GNTFDDYAMH | GGSWNSGSIGYYDSVK | VGRGGGYFDY the result was 4.72 (2 of 3 replicates; controls 3 of 9). The variant GFKPDDYAMH | GASWNSGSIGYADSVK | VGRGGGYFDY gave 4.74 (3 of 3 replicates; controls 5 of 9). The variant GFTFDFYAMH | GMSWNSGSIGYADKVK | VGRGGGYFDY gave nd (0 of 3 replicates; controls 0 of 9). With GFTFDDYAMH | GRGWNSGSISYADSVK | VGRGGGYFDY the result was 3.34 (1 of 3 replicates; controls 1 of 9). The variant GFGFDDYAMH | GASWNSGSHGYADSVK | VGRGGGYFDY gave nd (0 of 3 replicates; controls 0 of 9).

The variant GFTFDDYAMW | GFSWNSGSIGYADSVK | VGRGNGYFDY gave nd (0 of 3 replicates; controls 0 of 9). For GFKFDDYAMH | GKSWISGSIGYADSVK | VGRGGGYFDY, the assay gave nd (0 of 3 replicates; controls 0 of 9). For GFTFDDYAMH | GHSWNVGSIGYADSVK | VGRGYGYFDY, the assay gave nd (0 of 3 replicates; controls 0 of 9). The variant GFTFDEYAMH | GSSWNSGSIGYADSVK | VGRGFGYFDY showed nd (0 of 3 replicates; controls 0 of 9). With GFTFDDYAMH | GLSWNSGSLGRADSVK | VGRGGGYFDY the result was 5.61 (2 of 3 replicates; controls 5 of 9).

The variant GFTFDDYAMH | RMSWNSGSIIYADSVK | VGRGGGYFDY gave 5.13 (1 of 3 replicates; controls 1 of 9). The variant GFRFDDYAMH | GWSWLSGSIGYADSVK | VGRGGGYFDY showed 5.30 (1 of 3 replicates; controls 1 of 9). The variant GFTFDDYAMH | GNSLNSGSIGYADSVK | VGRGGGYCDY showed nd (0 of 3 replicates; controls 2 of 9). The variant GFTFDDYAMH | GCSWNSGSIGYLDSVK | VGRIGGYFDY showed nd (0 of 3 replicates; controls 0 of 9). For GFTFDDYAMH | FSSWNSGIIGYADSVK | VGRGGGYFDY, the assay gave 3.88 (1 of 3 replicates; controls 7 of 9).

With GFTPDDYAMH | GVSWNNGSIGYADSVK | VGRGGGYFDY the result was 3.99 (1 of 3 replicates; controls 1 of 9). With GFTFDDYAMH | GGSWQHGSIGYADSVK | VGRGGGYFDY the result was 4.45 (2 of 3 replicates; controls 0 of 9). The variant GFTFDDYAMH | GQSWNSGSIGAADSVK | VGRGGRYFDY showed nd (0 of 3 replicates; controls 2 of 9). The variant GFTFDDYAMH | GGSWNSGSIGYADSVI | VGRGGGYPDY showed 5.86 (1 of 3 replicates; controls 4 of 9). For GFTFDDYAMH | GLSWNSGSIGYADSVK | VDRGGVYFDY, the assay gave nd (0 of 3 replicates; controls 0 of 9).

For GFTTDDYAMH | GFSWNSGSIGYADSVK | VGRGGGYFDH, the assay gave nd (0 of 3 replicates; controls 2 of 9). The variant GFTFDDYAMH | GRSWNSGSIGHTDSVK | VGRGGGYFDY gave 4.93 (1 of 3 replicates; controls 1 of 9). For GFTFDDYAMH | GMSWNSGSIGYADSVK | VGRGGGYTDY, the assay gave 4.90 (3 of 3 replicates; controls 3 of 9). With GFTFDCQAMH | GKSWNSGSIGYADSVK | VGRGGGYFDY the result was 4.62 (2 of 3 replicates; controls 1 of 9). With GFTFDDYAMH | IASWNSGSIGYADSVK | VGRGGGYFDG the result was 4.99 (3 of 3 replicates; controls 7 of 9).

For GFTFDDYAMH | GTSWNSGSGGYAASVK | VGRGGGYFDY, the assay gave nd (0 of 3 replicates; controls 0 of 9). The variant GFTGDDYAMH | GCSWNSGSIGYADSVK | VGRGGGFFDY showed 5.97 (1 of 3 replicates; controls 3 of 9). With GFTFDDYAMH | GGSWNSGSIGYGDFVK | VGRGGGYFDY the result was nd (0 of 3 replicates; controls 1 of 9). The variant GFTFDDYAYH | GPSWNSGSIGYADSVK | VGRIGGYFDY showed nd (0 of 3 replicates; controls 0 of 9). The variant GFTFDMYAMH | GNSWNSRSIGYADSVK | VGRGGGYFDY gave 5.46 (3 of 3 replicates; controls 3 of 9).

The variant GFTFDDYAYH | GMSWNSGSIGYADSVK | VGRGGGYLDY showed 4.33 (1 of 3 replicates; controls 0 of 9). The variant GFTFDDYDMH | GMSWNSGSIGYADSVK | VGRGGGYFDY gave 4.77 (1 of 3 replicates; controls 1 of 9). The variant GFPFDDYAMH | PSSWNSGSIGYADSVK | VGRGGGYFDY showed nd (0 of 3 replicates; controls 2 of 9).

Again, the first 6 entries without any signal:

GFTSDDYAMH | GRSWYSGSIGYADSVK | VGRGGGYFDY: nd (0 of 3 replicates; controls 1 of 9).
GFTFDFYAMH | GMSWNSGSIGYADKVK | VGRGGGYFDY: nd (0 of 3 replicates; controls 0 of 9).
GFGFDDYAMH | GASWNSGSHGYADSVK | VGRGGGYFDY: nd (0 of 3 replicates; controls 0 of 9).
GFTFDDYAMW | GFSWNSGSIGYADSVK | VGRGNGYFDY: nd (0 of 3 replicates; controls 0 of 9).
GFKFDDYAMH | GKSWISGSIGYADSVK | VGRGGGYFDY: nd (0 of 3 replicates; controls 0 of 9).
GFTFDDYAMH | GHSWNVGSIGYADSVK | VGRGYGYFDY: nd (0 of 3 replicates; controls 0 of 9).

Source: Engelhart et al. 2022 (doi:10.1038/s41597-022-01779-4), MIT Lincoln Laboratory and A-Alpha Bio; data file from the FLAb repository.